Reference: ChEMBL document CHEMBL4000201, “Benzylideneoxymorphone: A new lead for development of bifunctional mu/delta opioid receptor ligands” (Bioorg Med Chem Lett, 2017)
Calls of active or inactive are those of the source. The rule behind the calls is not given here.

Sequences of proteins named here, by UniProt entry; tags and fusion partners are left off.
UniProt P35372, whole entry, looked up: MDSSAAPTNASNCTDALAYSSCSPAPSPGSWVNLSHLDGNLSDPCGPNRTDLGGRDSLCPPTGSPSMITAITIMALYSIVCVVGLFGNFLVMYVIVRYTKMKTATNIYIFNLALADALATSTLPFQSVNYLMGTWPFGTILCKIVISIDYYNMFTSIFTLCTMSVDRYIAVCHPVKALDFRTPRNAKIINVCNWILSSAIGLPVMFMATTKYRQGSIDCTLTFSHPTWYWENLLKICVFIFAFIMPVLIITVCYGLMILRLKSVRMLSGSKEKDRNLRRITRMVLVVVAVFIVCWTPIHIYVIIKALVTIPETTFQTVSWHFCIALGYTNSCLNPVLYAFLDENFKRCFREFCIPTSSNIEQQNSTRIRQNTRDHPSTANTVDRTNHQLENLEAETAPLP
UniProt P33533, whole entry, looked up: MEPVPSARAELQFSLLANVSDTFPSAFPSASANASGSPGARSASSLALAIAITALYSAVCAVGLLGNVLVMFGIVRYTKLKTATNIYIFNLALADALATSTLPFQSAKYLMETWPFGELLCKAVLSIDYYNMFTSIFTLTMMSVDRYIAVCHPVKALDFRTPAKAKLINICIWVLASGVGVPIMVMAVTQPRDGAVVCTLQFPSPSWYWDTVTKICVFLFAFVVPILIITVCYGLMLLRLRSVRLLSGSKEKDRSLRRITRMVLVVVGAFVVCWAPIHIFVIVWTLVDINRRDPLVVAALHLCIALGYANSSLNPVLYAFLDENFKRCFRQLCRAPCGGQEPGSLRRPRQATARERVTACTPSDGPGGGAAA

Experiments:
Mu-type opioid receptor = Mu-type opioid receptor (Homo sapiens, UniProt P35372); test: Agonist activity at MOR (unknown origin) by [35S]GTPgamma binding assay relative to DAMGO
[1] = target: Delta-type opioid receptor (Rattus norvegicus) (UniProt P33533); test: Antagonist activity at DOR in rat C6 cells assessed as inhibition of SNC80-induced [35S]GTPgamma binding
Mus musculus [2] = test: Antinociceptive activity in Swiss-Webster mouse assessed as increase in response latency 50 mg/kg, sc measured 30 mins post dose by hot plate test
Mus musculus [3] = test: Antinociceptive activity in Swiss-Webster mouse assessed as increase in response latency 50 mg/kg, sc administered 30 mins prior to test measured up to 70 mins post dose by hot plate test
Mus musculus [4] = test: Antinociceptive activity in Swiss-Webster mouse assessed as increase in tail-flick latency at 50 mg/kg, sc administered 30 mins prior to test measured at 70 mins post dose by tail-flick test
Mus musculus [5] = test: Antinociceptive activity in Swiss-Webster mouse assessed as increase in tail-flick latency at 60 mg/kg, sc administered 30 mins prior to test measured at 30 mins post dose by tail-flick test
Mus musculus [6] = test: Antinociceptive activity in Swiss-Webster mouse assessed as increase in tail-flick latency at 60 mg/kg, sc administered 30 mins prior to test measured up to 70 mins post dose by tail-flick test
Mus musculus [7] = test: Antinociceptive activity in Swiss-Webster mouse assessed as maximum time required for maximum possible effect at 20 to 60 mg/kg, sc after 30 mins measured every 20 mins for 90 mins by hot plate test

Row | Compound | Emax (Mu-type opioid receptor) | Ke [1] | Activity (Mus musculus [2]) | Activity (Mus musculus [3]) | Activity (Mus musculus [4]) | Activity (Mus musculus [5]) | Activity (Mus musculus [6]) | Tmax (Mus musculus [7])
1 | O=C1/C(=C/c2ccccc2)C[C@@]2(O)[C@H]3Cc4ccc(O)c5c4[C@@]2(CCN3CCc2ccccc2)[C@H]1O5 | 52% |  |  |  |  |  |  | 
2 | O=C1/C(=C/c2ccccc2)C[C@@]2(O)[C@H]3Cc4ccc(O)c5c4[C@@]2(CCN3CCCc2ccccc2)[C@H]1O5 | < 10% |  |  |  |  |  |  | 
3 | CN1CC[C@]23c4c5ccc(O)c4O[C@H]2C(=O)/C(=C/c2ccccc2)C[C@@]3(O)[C@H]1C5 | 39% | 138 nM | Active | Active | Active | Active | Active | 50 min
